Experimental data taken from US7081343B2, “Methods for identifying modulators of NF-KB activity” (The Regents of the University of California, priority 2001, dated 2006).

Tested on: GFP-RelA
Assay: GFP-RelA epifluorescence localization in HeLa cells co-expressing HDAC3
Type: cell-based, human
Settings: TSA 800 nM, 5 hours, FIG. 3I panel 4
Method: To monitor potential effects of HDAC3 on the intracellular trafficking of RelA, green fluorescent protein-RelA fusion proteins (GFP-RelA) were prepared and expressed in HeLa cells in the presence and absence of HDAC3 (FIG. 3I). […] HDAC3 and GFP-RelA plasmid DNA was transfected at a 6:1 ratio to ensure that all GFP-RelA expressing cells also contained HDAC3. […] Numbers shown in the lower left corner of each panel represent the percentage of cells displaying the depicted phenotype derived from inspection of at least 200 transfected cells present in multiple microscopic fields.

CC(/C=C/C(=O)NO)=C\[C@@H](C)C(=O)c1ccc(N(C)C)cc1 [TSA, Trichostatin A]
pattern of GFP-RelA expression in GFP-RelA and HDAC3 co-transfected cells: nuclear pattern of expression
